This is an account of results in patent US20250326790A1, “PEPTIDES BINDING TO HYPOXIA INDUCIBLE FACTORS AND THEIR USE” (UNIVERSITY OF SOUTHAMPTON, priority 2021, published 2025).

Protein sequences, listed by entry. Tags and fused reporters are not part of them. Residues count along the entry.
UniProt Q16665, 228-298: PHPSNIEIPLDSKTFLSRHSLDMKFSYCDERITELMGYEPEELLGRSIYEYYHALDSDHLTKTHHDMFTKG
UniProt Q16665, 238-349 limits assumed: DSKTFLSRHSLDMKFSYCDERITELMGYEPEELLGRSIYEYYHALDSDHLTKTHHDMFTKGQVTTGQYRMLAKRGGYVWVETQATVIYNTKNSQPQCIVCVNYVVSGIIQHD
UniProt Q99814, 230-300: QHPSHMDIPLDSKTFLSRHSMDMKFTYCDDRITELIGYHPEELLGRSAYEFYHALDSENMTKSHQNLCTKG
UniProt Q99814, 240-350 limits assumed: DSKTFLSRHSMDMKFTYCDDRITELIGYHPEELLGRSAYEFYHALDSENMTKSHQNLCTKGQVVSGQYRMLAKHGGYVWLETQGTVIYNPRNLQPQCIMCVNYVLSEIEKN

pKd: −log10 of the molar value.

The target in one assay is recombinantly expressed PAS-B domain of HIF-1α (Homo sapiens (Human), UniProt Q16665). The experiment in a line: MST binding affinity to PAS-B domain of HIF-1α. To be noted: microscale thermophoresis, 50 nM labelled protein, 10% DMSO. The procedure:
(§1) MST experiments were performed on a Monolith NT.115 system (Nanotemper Technologies GmbH), in assay buffer containing 50 nM labelled protein, 10% DMSO and 0.05% TWEEN-20. MST measurements were performed using 50% LED and 50% MST power.
For orientation: Microscale thermophoresis detects binding through changes in fluorescence in a small temperature gradient.
Turning to `CC(C)CC[C@H](NS(=O)(=O)c1cccs1)C(=O)N[C@@H](Cc1ccc(I)cc1)C(=O)N[C@@H](CS)C(N)=O` [Example 23], the pKd (commonly the Kd on a negative log10 scale, so that one unit is a factor of ten) was 4.89.
As for `CC(C)CC[C@H](NC(=O)c1ccco1)C(=O)N[C@@H](Cc1ccc(I)cc1)C(=O)N[C@@H](CS)C(N)=O` [Example 8], the pKd was 4.77.
As to `COC(=O)C(CCCNC(=N)N)NC(=O)[C@H](CS)NC(=O)[C@H](Cc1ccc(I)cc1)NC(=O)[C@H](CCC(C)C)NS(=O)(=O)c1ccc(Cl)s1` (stereo partly shown) [Example 42], the pKd was 4.60.
Regarding `CC(C)CC[C@H](NS(=O)(=O)c1ccc(Cl)s1)C(=O)N[C@@H](Cc1ccc(I)cc1)C(=O)N[C@@H](CS)C(=O)NC1CCOCC1` [Example 44], the pKd is 4.82.
On to `CC(C)CC[C@H](NS(=O)(=O)c1ccc(Cl)s1)C(=O)N[C@@H](Cc1ccc(I)cc1)C(=O)N[C@@H](CS)C(=O)NCC(F)(F)F` [Example 32], for which the pKd was 4.82.
On to `CC(C)CC[C@H](NS(=O)(=O)c1ccc(Cl)s1)C(=O)N[C@@H](Cc1ccc(I)cc1)C(=O)N[C@@H](CS)C(=O)NCc1ccccc1` [Example 45], for which the pKd is 4.92.
On the same count and under the same terms, the same measure for `CCCC(=O)N[C@@H](CCC(C)C)C(=O)N[C@@H](Cc1ccc(I)cc1)C(=O)N[C@@H](CS)C(N)=O` [Example 11]: 4.89.
Turning to `CC(C)CC[C@H](NS(=O)(=O)c1ccc(Br)s1)C(=O)N[C@@H](Cc1ccc(I)cc1)C(=O)N[C@@H](CS)C(N)=O` [Example 24], the pKd was 4.60.
On to `CC(C)CC[C@H](NS(=O)(=O)c1ccc(Cl)s1)C(=O)N[C@@H](Cc1ccc(I)cc1)C(=O)N[C@@H](CS)C(=O)NCc1cccs1` [Example 47], for which the pKd is 4.92.
`CC(C)CC[C@H](NS(=O)(=O)c1ccc(Cl)s1)C(=O)N[C@@H](Cc1ccc(I)cc1)C(=O)N[C@@H](CS)C(=O)O` [Example 19]: the pKd is 5.08.
On the same count and under the same terms, the same measure for `CC(C)CC[C@H](NS(=O)(=O)c1ccc(Cl)s1)C(=O)N[C@@H](Cc1ccc(I)cc1)C(=O)N[C@@H](CS)C(=O)NCCNc1ccccc1` [Example 39]: 4.77; for `CCS(=O)(=O)N[C@@H](CCC(C)C)C(=O)N[C@@H](Cc1ccc(I)cc1)C(=O)N[C@@H](CS)C(N)=O` [Example 14]: 4.66; for `CCNC(=O)[C@H](CS)NC(=O)[C@H](Cc1ccc(I)cc1)NC(=O)[C@H](CCC(C)C)NS(=O)(=O)c1ccc(Cl)s1` [Example 31]: 4.66.

The target in another assay is recombinantly expressed PAS-B domain of HIF-2α (Homo sapiens (Human), UniProt Q99814). As to the kind of experiment: MST binding affinity to PAS-B domain of HIF-2α. To be noted: microscale thermophoresis, 50 nM labelled protein, 10% DMSO. The procedure: as §1
`CC(C)CC[C@H](NS(=O)(=O)c1ccc(-c2cc(C(F)(F)F)nn2C)s1)C(=O)N[C@@H](Cc1ccc(I)cc1)C(=O)N[C@@H](CS)C(=O)NCCCCl` [Example 51]: the pKd is 5.51.
Turning to `CC(C)CC[C@H](NS(=O)(=O)c1ccc(Cl)s1)C(=O)N[C@@H](Cc1ccc(I)cc1)C(=O)N[C@@H](CS)C(=O)NCc1ccccn1` [Example 48], the pKd was 5.59.
Turning to `CC(C)CC[C@H](NS(=O)(=O)c1ccc(Oc2ccccc2)cc1)C(=O)N[C@@H](Cc1ccc(I)cc1)C(=O)N[C@@H](CS)C(N)=O` [Example 17], the pKd is 5.28.
